SMILES strings stand for the structures.

The experiment has as its system PC-3 tumors. Kind of experiment: PC-3 tumor xenograft study. Conditions: PC-3 xenograft, IV 10 mg/kg, day 1 and 9, end point day 19. In kind it is in vivo, nude mice.

As to `CC(=O)O[C@@]12CO[C@@H]1C[C@H](O)[C@@]1(C)C(=O)[C@H](O)C3=C(C)[C@@H](OC(=O)[C@H](O)[C@@H](NC(=O)OC(C)(C)C)c4ccccc4)C[C@@](O)([C@@H](OC(=O)c4ccccc4)[C@H]21)C3(C)C` [Docetaxel], the TGI is 84%.

The record behind these values is publication PMC3646298 (Pharmaceutical research, 2012).
